Molecular target: α4β2 nAChR subtype (Rattus norvegicus, UniProt P09483+P12390)
Experiment: biochemical
Conditions: Ki α4β2, Table 5; rat nAChR subtypes

By UniProt entry, the sequences of proteins in these tests, tags left out. Residues count along the entry.
UniProt P09483, 31-630: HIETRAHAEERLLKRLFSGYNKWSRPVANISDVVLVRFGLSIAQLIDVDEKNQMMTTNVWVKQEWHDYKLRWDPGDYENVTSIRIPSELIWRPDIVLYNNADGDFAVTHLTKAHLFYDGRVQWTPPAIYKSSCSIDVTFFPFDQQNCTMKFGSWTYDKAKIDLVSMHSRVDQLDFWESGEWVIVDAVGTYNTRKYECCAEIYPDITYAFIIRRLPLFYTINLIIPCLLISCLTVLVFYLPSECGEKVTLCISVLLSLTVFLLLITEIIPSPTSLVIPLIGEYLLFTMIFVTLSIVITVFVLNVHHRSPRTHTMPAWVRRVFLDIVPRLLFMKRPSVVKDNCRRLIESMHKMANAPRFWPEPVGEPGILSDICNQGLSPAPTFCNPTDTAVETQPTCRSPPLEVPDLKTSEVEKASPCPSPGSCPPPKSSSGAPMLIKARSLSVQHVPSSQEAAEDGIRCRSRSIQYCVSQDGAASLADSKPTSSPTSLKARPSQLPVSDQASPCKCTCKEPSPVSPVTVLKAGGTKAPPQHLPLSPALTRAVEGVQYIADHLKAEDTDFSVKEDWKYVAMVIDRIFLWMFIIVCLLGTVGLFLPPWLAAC
UniProt P12390, 25-500: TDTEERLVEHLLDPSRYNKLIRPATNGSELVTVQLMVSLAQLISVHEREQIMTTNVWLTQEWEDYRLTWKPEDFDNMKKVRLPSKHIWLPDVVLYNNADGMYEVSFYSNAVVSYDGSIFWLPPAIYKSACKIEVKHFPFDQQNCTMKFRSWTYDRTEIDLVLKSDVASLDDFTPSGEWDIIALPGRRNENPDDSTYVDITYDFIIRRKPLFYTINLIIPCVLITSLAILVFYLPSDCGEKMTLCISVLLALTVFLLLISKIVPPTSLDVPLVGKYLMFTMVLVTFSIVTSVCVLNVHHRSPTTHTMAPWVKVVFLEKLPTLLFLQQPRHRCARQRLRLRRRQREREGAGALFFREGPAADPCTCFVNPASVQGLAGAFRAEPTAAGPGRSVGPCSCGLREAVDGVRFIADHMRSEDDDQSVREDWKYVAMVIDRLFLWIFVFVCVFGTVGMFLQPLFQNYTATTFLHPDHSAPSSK

O[C@H]1C[C@H]2N[C@@H]1C[C@@H]2c1ccc(Cl)nc1 (relative stereo) [Ligand 6, 2-exo-(2-Chloro-5-pyridyl)-5-exo-hydroxyl-7-azabicyclo[2.2.1]heptane]
Ki: 29.3 nM

Source: patent publication US8030300B2 (dated 2011)
